# According to paper PMC5898815 (Journal of medicinal chemistry, 2018):
# What was measured:
# [1] = molecular target: DCN1 (Homo sapiens, UniProt Q96GG9); experiment: Isothermal titration calorimetry, equilibrium binding; conditions: versus compound 1
# [2] = molecular target: DCN1-UBE2M protein-protein interaction (Homo sapiens, UniProt Q96GG9); type: binding
# [3] = tested on: DCN1 and DCN2; experiment: Pulse-chase isoform selectivity, NEDD8 transfer from UBE2M to CUL2; type: biochemical, human; conditions: pulse-chase assay against all five DCN family members
smiles,measurement,setting,value
"CCCC(C)N1CCC(N(Cc2ccccc2)C(=O)Nc2cccc(C(F)(F)F)c2)CC1 (stereo not drawn) [Compound 52, 1-benzyl-1-(1-(pentan-2-yl)piperidin-4-yl)-3-(3-(trifluoromethyl)phenyl)urea]",Fold tighter binding to DCN1 compared to HTS hit 1,[1],ten-fold more tightly bound
same,Fold increase in biochemical TR-FRET potency compared to HTS hit 1,[2],100 fold
same,Selectivity for inhibiting neddylation activity of DCN1 and DCN2 over DCN3-5,[3],highly selective
